Columns and labels:
[1] = biological target: T1, human acetylcholinesterase (hAChE) (Homo sapiens, UniProt P22303); test: Progressive inhibition of hAChE by organophosphorus pesticides (Ellman method); format: biochemical
T1 construct: made in house

Protein sequences, listed by entry. Tags and fused reporters are not part of them. Residues count along the entry.
UniProt P22303, 32-614: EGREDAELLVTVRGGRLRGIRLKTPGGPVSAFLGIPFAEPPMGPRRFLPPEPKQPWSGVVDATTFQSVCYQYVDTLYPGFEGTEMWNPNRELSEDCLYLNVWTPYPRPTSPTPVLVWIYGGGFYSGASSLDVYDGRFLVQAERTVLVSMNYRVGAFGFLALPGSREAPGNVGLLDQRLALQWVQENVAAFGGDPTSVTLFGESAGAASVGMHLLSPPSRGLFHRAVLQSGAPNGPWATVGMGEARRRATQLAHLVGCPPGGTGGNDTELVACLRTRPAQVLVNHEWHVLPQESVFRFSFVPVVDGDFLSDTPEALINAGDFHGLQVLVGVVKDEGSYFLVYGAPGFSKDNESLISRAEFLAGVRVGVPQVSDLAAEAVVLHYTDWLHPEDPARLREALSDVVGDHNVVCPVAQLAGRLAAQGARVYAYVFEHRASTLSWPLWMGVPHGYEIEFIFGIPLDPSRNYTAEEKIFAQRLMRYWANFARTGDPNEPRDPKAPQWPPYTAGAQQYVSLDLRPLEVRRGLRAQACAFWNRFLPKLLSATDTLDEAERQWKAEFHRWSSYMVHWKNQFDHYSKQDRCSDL
UniProt P06276, 29-602: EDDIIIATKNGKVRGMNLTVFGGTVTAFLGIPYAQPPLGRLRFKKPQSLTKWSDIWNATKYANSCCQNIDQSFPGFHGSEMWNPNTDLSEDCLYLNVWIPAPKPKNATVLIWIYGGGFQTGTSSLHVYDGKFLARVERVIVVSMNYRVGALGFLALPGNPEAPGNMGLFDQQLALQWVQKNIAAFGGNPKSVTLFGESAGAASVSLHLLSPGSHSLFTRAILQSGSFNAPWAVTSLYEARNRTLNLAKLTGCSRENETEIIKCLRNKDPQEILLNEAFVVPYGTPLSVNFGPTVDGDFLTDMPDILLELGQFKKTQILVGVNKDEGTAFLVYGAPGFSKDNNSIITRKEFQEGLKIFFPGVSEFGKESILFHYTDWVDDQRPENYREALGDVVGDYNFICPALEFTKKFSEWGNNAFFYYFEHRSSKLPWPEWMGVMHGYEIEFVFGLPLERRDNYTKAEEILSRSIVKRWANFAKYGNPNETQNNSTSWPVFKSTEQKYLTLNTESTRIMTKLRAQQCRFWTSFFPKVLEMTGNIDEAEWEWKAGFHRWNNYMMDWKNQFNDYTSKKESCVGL

[2] = biological target: T2, human butyrylcholinesterase (hBChE) (Homo sapiens, UniProt P06276); test: Progressive inhibition of hBChE by organophosphorus pesticides (Ellman method); format: biochemical; conditions: 25 °C, ± SEM, read-out: ki, overall second-order rate constant of inhibition (converted)
T2 construct: hBChE derived from purified human plasma; from tissue; host or cells: human plasma

In the case of `CCCSP(=O)(OCC)SCCC` [Ethoprophos, ethoprophos], the “ki above the rate for fenamiphos” value ([1]; hAChE) is reported as 16 fold, the “ki higher than that of phosalone and methamidophos” value ([1]; hAChE) is reported as “approximately 30 fold” and the “more effective in hAChE inhibition than in BChE inhibition” value ([1]; hAChE vs BChE) is reported as 4 times. It also gave a kinact/KI ([1]; hAChE, 25 °C, ± SEM, read-out: ki, overall second-order rate constant of inhibition (converted)) of 1080 M⁻¹ s⁻¹ and a kinact/KI [2] of 264 M⁻¹ s⁻¹.
